Literature values as cited in patent publication US10624877B2, “Composition and method for treatment of symptoms associated with various skin conditions” (priority 2011, dated 2020).

What was measured:
[1] = in vivo; cited from earlier work
[2] = in vivo; cited from earlier work; remark: listed apart in the source
[3] = in vivo; cited from earlier work; remark: listed apart in the source
skin = conditions: human exposure studies and clinical experience; cited from earlier work

| Substance | phototoxicity or photosensitization [1] | effects on reproduction [2] | changes in growth, histopathologic observations or hematologic values [3] | sensitization, phototoxicity, photosensitization (skin) |
| --- | --- | --- | --- | --- |
| PEG-2 stearate | no evidence of phototoxicity or photosensitization | – | – | – |
| PEG-8 stearate | no evidence of phototoxicity or photosensitization | negative for effects on reproduction | no significant changes | – |
| glyceryl stearate SE | – | – | – | non-sensitizing, non-phototoxic and non-photosensitizing |
